Experimental data reported in publication PMC12823440, “Inhibitors supercharge kinase turnover through native proteolytic circuits” (Nature, 2025).

Protein sequences, listed by entry. Tags and fused reporters are not part of them. Lines headed by an entry give the natural chain unless they say otherwise; changes in a name come on top. Residues count along the entry.
UniProt P42685: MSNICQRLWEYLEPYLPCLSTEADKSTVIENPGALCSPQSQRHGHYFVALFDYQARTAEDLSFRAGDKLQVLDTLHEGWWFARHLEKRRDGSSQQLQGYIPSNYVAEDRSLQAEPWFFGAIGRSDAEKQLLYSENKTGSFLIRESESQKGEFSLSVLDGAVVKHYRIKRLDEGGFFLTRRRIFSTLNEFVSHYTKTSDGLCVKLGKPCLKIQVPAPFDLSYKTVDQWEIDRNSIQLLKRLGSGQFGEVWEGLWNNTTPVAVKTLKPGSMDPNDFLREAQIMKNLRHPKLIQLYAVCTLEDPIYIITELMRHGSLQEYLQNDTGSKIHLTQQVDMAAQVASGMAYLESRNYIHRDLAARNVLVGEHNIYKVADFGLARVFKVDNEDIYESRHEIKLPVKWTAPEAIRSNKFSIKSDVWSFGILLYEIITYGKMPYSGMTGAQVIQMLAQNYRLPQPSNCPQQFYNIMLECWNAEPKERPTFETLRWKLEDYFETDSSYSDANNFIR
UniProt P07948, 2-512: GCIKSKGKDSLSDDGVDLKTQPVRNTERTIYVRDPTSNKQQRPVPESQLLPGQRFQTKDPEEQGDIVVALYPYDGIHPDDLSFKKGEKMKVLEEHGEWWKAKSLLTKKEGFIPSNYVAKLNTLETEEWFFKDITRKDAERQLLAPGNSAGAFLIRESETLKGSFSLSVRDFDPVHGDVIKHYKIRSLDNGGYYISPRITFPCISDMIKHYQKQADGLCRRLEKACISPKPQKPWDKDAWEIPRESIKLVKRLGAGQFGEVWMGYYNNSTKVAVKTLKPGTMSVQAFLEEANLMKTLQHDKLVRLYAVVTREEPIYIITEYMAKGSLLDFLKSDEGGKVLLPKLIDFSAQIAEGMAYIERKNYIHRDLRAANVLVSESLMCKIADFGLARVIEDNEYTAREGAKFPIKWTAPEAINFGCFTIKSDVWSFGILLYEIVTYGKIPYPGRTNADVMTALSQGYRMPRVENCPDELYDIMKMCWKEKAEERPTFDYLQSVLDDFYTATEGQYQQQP

Columns and labels:
FRK [1] = biological target: T1, FRK (Homo sapiens, UniProt P42685); experiment: biochemical
FRK [2] = biological target: T1, FRK; experiment: Kinobead competition chemoproteomics in cell lysate; type: biochemical
LYN = biological target: T2, LYN (Homo sapiens, UniProt P07948); experiment: Z'-LYTE kinase inhibition assay (SelectScreen), ATP at apparent KM; type: biochemical
T2 construct: recombinant LYN

COc1ccc2c(C(=O)Nc3ccc(NC(=O)c4nn(C5CCN(C(=O)CC(C)(C)C#N)CC5)c5ccc(F)cc45)cc3Cl)cnn2c1 [SI-3] gave a Kd (FRK [1]) of 11.4 µM.

Work on SRC inhibitor 3 [SI-3] yielded a Kd (FRK [2]) of 11.4 µM and an IC50 (LYN) of 0.0567 µM.
